In assay [1] the target is T1, 5-hydroxytryptamine receptor 2A (Rattus norvegicus, UniProt P14842). Description: Binding affinity at cloned rat 5-hydroxytryptamine 2A receptor using [3H]DOB as radioligand. An outline of the steps:
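Competition binding using harvested, frozen NIH-3T3 cells stably expressing rat 5-HT2A, serum-starved 5 h before harvest. 1.0 nM [3H]DOB in 50 mM Tris, 0.5 mM EDTA, 10 mM MgCl2, pH 7.4. Incubated 60 min at 25 °C, then rapid filtration onto GF/B filters pre-soaked in 0.3% polyethylenimine, and scintillation counting. Nonspecific binding defined with 10 µM cinanserin in the saturation assays.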

Amino acid sequences for entries named in this document (tags omitted).
UniProt P14842, whole entry: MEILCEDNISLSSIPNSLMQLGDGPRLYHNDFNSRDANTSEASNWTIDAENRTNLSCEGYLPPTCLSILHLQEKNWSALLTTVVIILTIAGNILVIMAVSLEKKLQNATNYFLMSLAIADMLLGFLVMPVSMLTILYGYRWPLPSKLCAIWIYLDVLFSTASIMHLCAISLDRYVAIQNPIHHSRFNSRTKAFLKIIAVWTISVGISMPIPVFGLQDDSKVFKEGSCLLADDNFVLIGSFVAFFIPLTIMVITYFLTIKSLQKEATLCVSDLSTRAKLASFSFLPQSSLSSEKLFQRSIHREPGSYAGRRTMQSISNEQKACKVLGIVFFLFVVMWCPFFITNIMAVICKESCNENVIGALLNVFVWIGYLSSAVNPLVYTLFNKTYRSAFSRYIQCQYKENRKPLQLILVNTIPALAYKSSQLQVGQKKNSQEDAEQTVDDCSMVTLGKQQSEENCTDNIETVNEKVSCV

In assay [2] the target is T2, 5-hydroxytryptamine receptor 2C (Rattus norvegicus, UniProt P08909).
T2 sequence (P08909 whole entry): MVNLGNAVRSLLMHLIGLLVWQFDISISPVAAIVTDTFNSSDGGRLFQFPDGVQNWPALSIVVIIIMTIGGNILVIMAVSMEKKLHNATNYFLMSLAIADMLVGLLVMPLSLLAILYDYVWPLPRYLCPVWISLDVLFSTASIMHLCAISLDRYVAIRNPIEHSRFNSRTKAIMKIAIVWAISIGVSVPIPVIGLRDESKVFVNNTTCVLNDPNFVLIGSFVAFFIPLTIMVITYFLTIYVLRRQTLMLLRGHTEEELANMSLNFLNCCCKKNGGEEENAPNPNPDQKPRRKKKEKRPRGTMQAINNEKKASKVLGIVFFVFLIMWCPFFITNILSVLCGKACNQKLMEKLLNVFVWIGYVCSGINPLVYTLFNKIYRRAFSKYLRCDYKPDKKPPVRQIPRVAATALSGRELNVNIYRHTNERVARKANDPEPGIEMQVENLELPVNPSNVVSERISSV
Description: Binding affinity at cloned rat 5-hydroxytryptamine 2C receptor using [3H]DOI as radioligand. An outline of the steps:
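Competition binding using harvested, frozen NIH-3T3 cells stably expressing rat 5-HT2C. Buffer 50 mM Tris, 0.5 mM EDTA, 10 mM MgCl2, pH 7.4. Incubated 60 min at 25 °C, then rapid filtration onto polyethylenimine-treated GF/B filters and scintillation counting. Nonspecific binding defined with 10 µM mianserin in the saturation assays.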

The target of assay [3] is T1, 5-hydroxytryptamine receptor 2A. Description: Ability to stimulate phosphoinositide hydrolysis in NIH3T3 cells expressing the 5-hydroxytryptamine 2A receptor. Type of assay: cell-based.

pEC50, pKi: −log10 of the molar value.

For orientation: pKi means the negative decadic logarithm of the Ki, by convention in mol/L. By pEC50 is commonly meant the negative decadic logarithm of the EC50, by convention in mol/L.

For the compound `COc1cc(CC(C)N)c(OC)cc1Br` (stereo not drawn) [BROLAMFETAMINE], the pKi in assay [1] is 8.66; in assay [2], 8.55. Also, the pEC50 in assay [3] was 7.14.
